Measurements reported in patent US9301962B2, “Male contraceptive compositions and methods of use” (Baylor College of Medicine, priority 2010, dated 2016).

Assays:
[1] = test system: mouse testes spermatogenesis genes; details: males treated 6-12 weeks of age
[2] = test system: C57BL6/J/129S5 hybrid male mice; assay: Male fertility, fertilization and embryo developmental potential
Procedure: Oocytes from these females were collected from their oviductal ampulla and cultured for 2 days to determine their developmental potential post-mating (FIG. 6B).
(§1) The subsequent mixture was injected intraperitoneal into male mice at 1% of the body weight of the mouse (final amount is 50 mg/kg/day). The control was DMSO dissolved 1:10 in (2-Hydroxypropyl)-β-cyclodextrin and injected similarly. […] These studies were approved by the Administrative Committee on Laboratory Animal Care at Baylor College of Medicine, and all experiments were conducted in accordance with the NIH guide for the Care and Use of Laboratory Animals.

[3] = test system: C57BL6/J/129S5 hybrid male mice; assay: Mouse study: testes size and histology after daily i.p. JQ1; details: 50 mg/kg/day i.p.
Procedure: as §1

[4] = test system: C57BL6/J/129S5 hybrid male mice
Procedure: as §1

Cc1sc2c(c1C)C(c1ccc(Cl)cc1)=NC(CC(=O)OC(C)(C)C)c1nnc(C)n1-2 (racemic) [JQ1, tert-Butyl 2-(4-(4-chlorophenyl)-2,3,9-trimethyl-6H-thieno[3,2-f][1,2,4]triazolo[4,3-a][1,4]diazepin-6-yl)acetate]
Hist1h1t mRNA downregulation [1]: 2.6 fold
Plzf mRNA enrichment in testes versus control [1]: 2.0 fold
Stra8 mRNA enrichment in testes versus control [1]: 1.3 fold
oocytes developed into 4 cell embryos ([2]; females mated to males treated 5 weeks, control 70.1%): 6.6%
oocytes developed into 2 cell embryos ([2]; females mated to males treated 5 weeks, control 72.8%): 10.1%
pups per litter after cessation ([2]; within the first month following cessation of JQ1): 7.25+/−0.58 pups per litter
testes volumes, reduction to % of control ([3]; treated for 6 weeks (6-12 weeks of age)): 40.6 % of the controls
testes volumes, reduction to % of control ([3]; treated from 3-6 weeks of age): 75.4 % of control
testes volumes, reduction to % of control ([3]; treated from 6-9 weeks of age): 54.7 % of controls
epididymal sperm number, % of control ([4]; 50 mg/kg/day i.p., after 3 weeks of treatment, entire epididymis): 27.8 % of the control
sperm in the cauda epididymis, % of control ([4]; 50 mg/kg/day i.p., after 6 weeks of treatment): 10.9 % of the control
spermatozoa with progressive motility ([4]; cauda epididymis sperm, control 85%): 5%
